GALK inhibitor = inhibitors of human galactokinase; actives 0.007% (n = 270,000); Potency, µM (doses to about 57.5 µM), for the others: at the highest dose activity change, negative = inhibition, most hits filed as inhibitors; AID 1868; P51570; Purified GALK, Kinase-Glo residual ATP luminescence; also: potency is read from the fitted curve at half-maximal effect; % is scaled to controls: 0 for no effect and ±100 for the full control effect
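Galactose (100 uM) and ATP (35 uM) were turned over by 5 nM GALK for 1 h at RT. Kinase-Glo Plus then converted the remaining ATP into a luminescent signal.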
Nrf2 inh = inhibitors of Nrf2 signaling | A549 ARE-Fluc reporter, luciferase luminescence, 18-24 h | Potency, µM (highest dose often 46 µM), for inactives: at the top dose activity change, negative = inhibition, usual class: inhibitors | actives 2.1% (n = 360,000); also: potency is read from the fitted curve at half-maximal effect; % is scaled to controls: 0 for no effect and ±100 for the full control effect; nearly all actives have a fitted effect of over 60% in size
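Quantitative HTS in A549 cells stably bearing an antioxidant response element-firefly luciferase construct. Inhibition of Nrf2-driven transcription was scored by luminescence after 18-24 h of compound exposure at 37 °C.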
miR-21 reporter = raises the signal of a miR-21 reporter | HeLa miR-21 FLuc reporter, luciferase, 48 h | Potency, µM (highest dose often 38.3 µM), inactives show at the highest dose reporter change, positive = more light | 340,000 tested, under 10 active | AID 2288; active = well fitted rising curve with a large enough effect; inconclusive = small, poorly fitted or top-dose-only effect; inactive = no such curve, though single readings can be large or run the other way;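 note: % of control where 0% means no effect; miR-21 action dims this reporter so a rising signal means less miR-21 action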
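Compounds were titrated across several concentrations (up to approximately 40 uM) and incubated 48 hours with HeLa miR-21-FLuc reporter cells (miR-21 target sequence downstream of FLuc, endogenous miR-21). Readout was firefly luciferase luminescence after lytic detection reagent.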
PI4K2A block = inhibitors of human PI4K2A; Q9BTU6; purified PI4K2A, ADP-Glo luminescence, 1 h; stronger effect = lower value; activity change, negative = inhibition, % at 76.9 µM; actives 0.13% (n = 420,000); in the data active = activity change below about -50%; inconclusive = mostly about -30% to -49%;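 also: -100% = wells without enzyme as full effect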
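PI4K2A activity was measured by ADP-Glo luminescence: enzyme (4 ug/mL stock) and phosphatidylinositol (1.2 mM stock) in Tris pH 7.5/MgCl2/EGTA/Triton X-100 buffer were reacted with ATP (300 microM stock) for one hour at ambient temperature.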
A549 tox-1 = kills or reduces viability of A549 cells in Nrf2 counter-screen; actives 0.16% (n = 390,000); A549 ARE-Fluc cells, CellTiter-Fluor viability, 18-24 h; AID 504648; Potency, µM (top dose mostly 46 µM), inactives show at the top dose activity change, negative = cytotoxicity, most hits filed as inhibitors; also: potency is read from the fitted curve at half-maximal effect; % is scaled to controls: 0 for no effect and ±100 for the full control effect
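A549 ARE_Fluc cells in 5% FBS OPTI-MEM were exposed to compounds in concentration-response for 18-24 h at 37 deg C. Viability was read by CellTiter-Fluor fluorescence (Ex 405/Em 525) after 30 min, before the luciferase read.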
Nrf2 ARE act = activators of Nrf2 (ARE) signaling; AREc32 ARE-luciferase reporter (MCF7-derived line), luminescence, 24 h; actives 0.31% (n = 410,000); Potency, µM (highest dose often 46.1 µM), for inactives: at the highest dose activation, most hits filed as activators; AID 624171; also: potency is read from the fitted curve at half-maximal effect; % of control where 0% means no effect; nearly all actives have a fitted effect of over 65% in size
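ARE activation measured as luciferase luminescence (Steady-Glo, 30 min RT) in AREc32_Fluc cells after 24 hr compound exposure at 37 deg C, 5% CO2; cells seeded overnight at 1000/well in OPTI-MEM, 5% FBS.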
FLuc counter 3 = counter-screen for Nrf2 inhibitors: firefly luciferase enzyme inhibition | Potency, µM (doses to about 57.5 µM), inactives show at the top dose activity change, negative = inhibition, actives largely listed as inhibitors | shares compounds with Nrf2 inh | actives 4% (n = 1,400) | purified firefly luciferase, luminescence inhibition; also: potency is read from the fitted curve at half-maximal effect; % is scaled to controls: 0 for no effect and ±100 for the full control effect; nearly all actives have a fitted effect of over 65% in size
A549 tox-2 = toxic to A549 ARE-Fluc cells in Nrf2 counterscreen; shares compounds with Nrf2 inh; A549 ARE-Fluc cells, cytotoxicity counterscreen; Potency, µM (top dose mostly 46.1 µM), for inactives: top-dose activity change, negative = cytotoxicity, usual class: inhibitors; actives 2% (n = 1,400); AID 720523;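 also: potency is read from the fitted curve at half-maximal effect; cells exposed to compounds for 18 to 24 hours; % is scaled to controls: 0 for no effect and ±100 for the full control effect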
Nrf2 ARE inh = Nrf2 inhibition confirmed, A549 ARE-luciferase | actives 74% (n = 1,400) | A549 ARE-firefly luciferase reporter, luminescence | Potency, µM (series often up to 46.1 µM), for inactives: at the highest dose activity change, negative = inhibition, hits mostly inhibitors | shares compounds with Nrf2 inh; also: potency is read from the fitted curve at half-maximal effect; % is scaled to controls: 0 for no effect and ±100 for the full control effect; nearly all actives have a fitted effect of over 65% in size
Starred values were filed as active, the others as inactive; ? = inconclusive; / = no result given. Only some compounds are listed: those with a hit (about 2.2% of all), similar ones and a draw of the others. Unless noted, calls follow the shape of the dose curve; as a rule, active = well fitted curve in the direction sought with a large enough effect; inconclusive = small, poorly fitted or top-dose-only effect, or another doubt; inactive = no such curve, though single readings can be large; an effect the other way counts as inactive or inconclusive.

Order of values: GALK inhibitor	Nrf2 inh	miR-21 reporter	PI4K2A block	A549 tox-1	Nrf2 ARE act	FLuc counter 3	A549 tox-2	Nrf2 ARE inh
[1] O=C(Nc1ccc(N2CCN(C(=O)c3ccccc3)CC2)cc1)c1ccc2c(c1)OCO2
  -1%	?	22%	2	-19%	0%	/	/	/
[2] Cc1ccc(C(=O)N2CCN(c3ccc(NC(=O)c4ccc5c(c4)OCCO5)cc3)CC2)cc1
  -2%	7.3µM*	8%	-9	-19%	0%	0%	-22%	?
[3] CC(=O)OCC(=O)[C@@]1(O)CC[C@H]2[C@@H]3C[C@H](C)C4=CC(=O)C=C[C@]4(C)[C@H]3[C@@H](O)C[C@@]21C
  /	0.052µM*	-34%	5	1%	1%	4%	-7%	0.052µM*
[4] CC1CC2C(C(O)CC3(C)C2CCC3(O)C(=O)CO)C2(C)C=CC(=O)C=C12 (stereo unspecified)
  /	0.046µM*	/	2	-5%	0%	-1%	-14%	0.041µM*
[5] O=C1N(Cc2ccccc2)c2ccccc2C12CCCc1sc(CCc3ccccc3)nc12 (stereo unspecified)
  /	/	/	-1	/	/	/	/	/
[6] O=C(COc1ccccc1Cl)NCCNC(=O)c1cccnc1
  2%	-10%	-1%	1	4%	0%	/	/	/
[7] O=C(COc1ccccc1Cl)NCCCNC(=O)c1cccnc1
  0%	3.7µM*	?	-19	2%	-3%	-1%	-21%	9.2µM*
[8] O=C(Cc1cccs1)NC1CCCCN(Cc2cccc(Cl)c2)C1=O (stereo unspecified)
  /	/	/	3	/	/	/	/	/
[9] O=C1CCC2S/C(=C/Nc3ccc(C(F)(F)F)cc3)C(=O)N12 (stereo unspecified)
  0%	1µM*	?	0	0%	-4%	11µM*	2%	4.1µM*
[10] Cc1c(Cl)cccc1NC(=O)Cn1cc(C(=O)C2CCCCC2)c2ccccc21
  /	2.9µM*	?	2	-21%	0%	0%	-16%	/
[11] CC1Cc2ccccc2N1c1ncnc(N)c1[N+](=O)[O-] (stereo unspecified)
  2%	4.6µM*	?	-8	-14%	-2%	2%	-25%	8.2µM*
[12] CCCCCCCCN1C(=O)[C@@H](CC(=O)NCc2cccc3ccccc23)C[C@@]2(C(=O)OC)C1=C[C@H](COCc1ccccc1)O[C@@H]2C
  /	/	/	0	/	/	/	/	/
[13] O=C(Cc1n[nH]c(=O)c2ccccc12)Nc1cccc(S(=O)(=O)N2CCCCCC2)c1
  /	9.2µM*	/	-1	-14%	4%	-2%	-7%	9.2µM*
[14] O=C(Cn1c(NCCO)nc2ccccc21)Nc1cccc(S(=O)(=O)N2CCCC2)c1
  /	?	/	-2	-3%	0%	/	/	/
[15] COc1ccc(CC(=O)Nc2cccc(S(=O)(=O)N3CCCC3)c2)cc1OC
  /	4.6µM*	/	5	-21%	3%	0%	-13%	7.3µM*
[16] COc1ccc(CCNC(=O)c2cccc(S(=O)(=O)N3CCCC3)c2)cc1OC
  /	-13%	/	0	-4%	1%	/	/	/
[17] COc1ccc(CNC(=O)c2cccc(S(=O)(=O)N3CCCCC3)c2)cc1OC
  /	5.2µM*	/	0	-19%	0%	3%	0%	5.8µM*
[18] O=C(Cn1cnc2ccccc21)Nc1cccc(S(=O)(=O)N2CCCC2)c1
  /	5.8µM*	/	-19	-16%	-1%	-1%	-1%	9.2µM*
[19] C/C(=N/NC(=O)CSc1nnc(-c2ccccc2)n1-c1ccc(Cl)cc1)c1cccc(O)c1
  /	/	/	-12	/	/	/	/	/
[20] CCOc1ccc(-n2c(SCC(=O)Nc3ccc(S(=O)(=O)Nc4cc(C)nc(C)n4)cc3)nnc2-c2ccc(C)cc2)cc1
  /	/	/	-1	/	/	/	/	/
[21] COc1cc(C=Nn2c(-c3n[nH]c4c3CCC4)n[nH]c2=S)ccc1OCc1ccccc1
  /	/	/	-4	/	/	/	/	/
[22] COC(=O)[C@]12C[C@H](CC(=O)N3CCOCC3)C(=O)N(CCc3ccc(OC)c(OC)c3)C1=C[C@H](C(C)C)O[C@@H]2C1CC1
  /	/	/	3	/	/	/	/	/
[23] COc1cc(OC)c(OC)cc1CNC(=O)c1cccc(S(=O)(=O)N2CCc3ccccc3C2)c1
  /	7.3µM*	/	-4	-17%	-1%	2%	-9%	5.8µM*
[24] CCN(CC)C(=O)CC[C@H]1CC[C@]2(CCCN(Cc3ccccc3)C2)O1
  /	/	/	-4	/	/	/	/	/
[25] CCOc1ccccc1C(=O)NCC(=O)N1CCN(Cc2ccc3c(c2)OCO3)CC1
  /	4.6µM*	/	-4	-4%	2%	-1%	-1%	5.2µM*
[26] COc1ccccc1C(=O)N1CCN(Cc2ccc3c(c2)OCO3)CC1
  0%	21%	1%	9	1%	-1%	/	/	/
[27] O=S(=O)(N1CCN(c2nc(-c3cccs3)nc3ccccc23)CC1)C(F)(F)F
  /	-5%	/	/	12%	/	/	/	/
[28] O=C(O)CCC(NC(=O)c1ccc(Cl)cc1)C(=O)O (stereo unspecified)
  10%	7%	0%	-8	1%	-1%	/	/	/
[29] CN(Cc1cnc2nc(N)nc(N)c2n1)c1ccc(C(=O)NC(CCC(=O)O)C(=O)O)c2ccccc12 (stereo unspecified)
  /	0.041µM*	/	-4	-23%	0%	-20%	-18%	0.033µM*
[30] CC(C)CC(N)c1cn([C@@H](CCC(=O)O)C(=O)N2CCNCC2)nn1 (stereo partly specified)
  3%	5%	-3%	2	-13%	-1%	/	/	/
[31] CC(C)C[C@H](N)c1cn([C@@H](CCCCN)C(=O)N2CCNCC2)nn1
  0%	1µM*	-1%	0	?	-3%	0%	1%	?
[32] Cc1cc(C(C)(C)C)cc(C)c1C[n+]1ccc2ccccc2c1
  0%	3.7µM*	?	5	-18%	-1%	3%	-5%	2.3µM*
[33] Brc1ccc(C[n+]2ccccc2)cc1
  /	2.6µM*	/	-6	-7%	0%	-1%	-7%	4.1µM*

One compound at a time, as listed above.
O=C1CCC2S/C(=C/Nc3ccc(C(F)(F)F)cc3)C(=O)N12 (stereo unspecified) as listed: GALK inhibitor = 0%; Nrf2 inh = 1µM*; miR-21 reporter = ?; PI4K2A block = 0; A549 tox-1 = 0%; Nrf2 ARE act = -4%; FLuc counter 3 = 11µM*; A549 tox-2 = 2%; Nrf2 ARE inh = 4.1µM*
O=S(=O)(N1CCN(c2nc(-c3cccs3)nc3ccccc23)CC1)C(F)(F)F as listed: GALK inhibitor = /; Nrf2 inh = -5%; miR-21 reporter = /; PI4K2A block = /; A549 tox-1 = 12%; Nrf2 ARE act = /; FLuc counter 3 = /; A549 tox-2 = /; Nrf2 ARE inh = /

Screening data: PubChem, National Center for Advancing Translational Sciences (NCATS)
